From ChEMBL document CHEMBL4130633, “Exploration of Benzothiazole Rhodacyanines as Allosteric Inhibitors of Protein-Protein Interactions with Heat Shock Protein 70 (Hsp70)” (J Med Chem, 2018)

Assays:
[1] = Selectivity index, ratio of IC50 for human IMR90 cells to IC50 for human MCF7 cells; format: toxicity; settings: IMR90 cells versus MCF7 cells, read-out: Ratio IC50
[2] = Selectivity index, ratio of IC50 for MEF cells to IC50 for human MCF7 cells; format: toxicity; settings: mouse (MEF cells), MEF cells versus MCF7 cells, read-out: Ratio IC50

| SMILES | selectivity ratio [1] | selectivity ratio [2] |
| --- | --- | --- |
| CCn1c(=O)/c(=C2\Sc3cc(Br)ccc3N2C)s/c1=C\c1scc[n+]1Cc1ccc(C(F)(F)F)o1.[Cl-] | 98 | 35 |
| CCc1ccc2c(c1)S/C(=c1/s/c(=C\c3scc[n+]3Cc3ccccc3C(=O)OC)n(CC)c1=O)N2C.[Cl-] | 65 | 20 |
| CCn1c(=O)/c(=C2\Sc3cc(C)ccc3N2C)s/c1=C\c1scc[n+]1Cc1ccccc1.[Cl-] | 11 | 11 |
